Assays:
Assay in all cases: control GST beads, pull-down of 35S-labelled in vitro translated CDKs
mouse CDK5 = mouse CDK5 (mouse, UniProt P49615)
Method: (§1) Equal aliquots of the "input" samples shown in lanes 1–6 were incubated with control beads (lanes 7–12) (i.e., GST-Sepharose; GST=glutathione S-transferase) or with beads containing a GST-p19 fusion protein (lanes 13–18), after which the beads were washed, and adsorbed radiolabeled products were separated on gels and autoradiographed. In Panel B, the experiments were performed as in panel A, except that radiolabeled cyclins D2 and D3 were substituted for cdk gene products; the cdk4 gene product was used as a positive control. All autoradiographic exposure times were 15 hrs.
(§2) Human InK4 polypeptides specifically bind to the cyclin D-dependent catalytic subunits, CDK4 and CDK6 (5,18,45). To study the interactions of mouse p19 and p18 with CDKs, cDNAs encoding CDC2 (CDK1) and CDKs 2–6 were transcribed and translated in vitro, and the radiolabeled products were mixed with GST-tagged p19 and p18 fusion proteins adsorbed to glutathione-Sepharose beads or to GST-Sepharose beads as a control.
(§3) Plasmids derived from pBluescript and containing the entire coding sequences of the mouse cdk2, cdk4, cdk5, or cdk6 genes (Matsuoka et al., Mol. Cell. Biol. 14:7265–7275 (1994); Matsushime et al., Cell 71:323–334 (1992)) or human cdc2/cdk1 or cdk3 genes (provided by Drs. Matthew Meyer-son and Edward Harlow (MGH Cancer Center, Cambridge, Mass.)) were transcribed and translated in vitro (Matsuoka et al., Mol. Cell. Biol. 14:7265–7275 (1994)). Mouse cdk6 cDNA was cloned from a mouse macrophage library (Stratagene, La Jolla, Calif.) by screening with a full-length human cdk6 clone (also provided by M. Meyerson and E. Harlow). […] After 2 hours of incubation at 4° C., beads were collected by centrifugation, washed 4 times in IP kinase buffer, and the bound proteins were denatured and analyzed by electrophoresis on 12.5% polyacrylamide gels containing SDS (Anderson, S. J., et al., J. Virol. 51:730–741 (1984)).

mouse CDK6 = mouse CDK6 (mouse, UniProt Q64261)
Method: as §1, §2, §3

mouse CDK4 = target: T1, mouse CDK4 (mouse, UniProt P30285)
T1 sequence: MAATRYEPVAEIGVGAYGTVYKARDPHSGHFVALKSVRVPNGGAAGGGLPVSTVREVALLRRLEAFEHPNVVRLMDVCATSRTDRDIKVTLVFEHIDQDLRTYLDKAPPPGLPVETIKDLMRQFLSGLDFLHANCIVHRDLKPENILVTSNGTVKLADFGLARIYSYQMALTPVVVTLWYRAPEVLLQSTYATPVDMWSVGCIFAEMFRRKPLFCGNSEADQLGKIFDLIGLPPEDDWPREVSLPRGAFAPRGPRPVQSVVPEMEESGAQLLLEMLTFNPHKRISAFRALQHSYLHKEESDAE
Method: as §1, §2, §3

Measured: binding result

B1: GST (glutathione S-transferase), control protein (other)
chain: MSPILGYWKIKGLVQPTRLLLEYLEEKYEEHLYERDEGDKWRNKKFELGLEFPNLPYYIDGDVKLTQSMAIIRYIADKHNMLGGCPKERAEISMLEGAVLDIRYGVSRIAYSKDFETLKVDFLSKLPEMLKMFEDRLCHKTYLNGDHVTHPDFMLYDALDVVLYMDPMCLDAFPKLVCFKKRIEAIPQIDKYLKSSKYIAWPLQGWQATFGGGDHPPK
no binding (tested: 1 ug on beads): all assays above
